# Antibody variant affinities, Ab-14 heavy chain, assay B

Reference: Li et al. 2023, doi:10.1038/s41467-023-39022-2. File: FLAb, binding data.

The target is the same throughout: PDVDLGDISGINAS, from the HR2 region of SARS-CoV-2 spike.

Ab-14 is the parent antibody, in scFv form: VH, then three GGGGS repeats, then VL. The light chain is unchanged in all variants.
VH: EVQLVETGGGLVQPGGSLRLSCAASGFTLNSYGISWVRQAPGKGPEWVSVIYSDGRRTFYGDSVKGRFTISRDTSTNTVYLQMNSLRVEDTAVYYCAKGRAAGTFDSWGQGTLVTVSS
VL: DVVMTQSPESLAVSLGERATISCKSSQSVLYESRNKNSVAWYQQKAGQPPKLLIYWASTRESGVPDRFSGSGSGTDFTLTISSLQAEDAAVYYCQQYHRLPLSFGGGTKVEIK

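These sequences belong to a second round, designed from the earlier measurements on random variants of the parent. Group labels follow the data file (Ctrl: baseline library sampled from a position-specific scoring matrix, with some repeated check sequences; Rand: our label for a block that the file lists under HC and that is probably the random mutants of the ten best first-round binders; En: ensemble of fine-tuned language models; GP: Gaussian process model; GPLM: also part of the Gaussian process libraries; HC: hill climbing; Gen: genetic algorithm; Gibbs: Gibbs sampling; a sequence that several methods proposed may carry one label only). Affinity was read by AlphaSeq, a pooled yeast mating assay with surface-displayed partners. Mating (16 h, 30 °C) was followed by selection of diploids and sequencing of their barcodes. Read counts were normalised to the haploid input and turned into Kd by a linear fit to BCL2-family pairs of known affinity, for each replicate. There are six technical replicates.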

The whole VH of each variant is written out. Scale: log10 of Kd in nM, estimated from mating counts; low values are strong binders. The mean shown is taken over the replicates in which the pair was detected. Where no diploid with the target was found in any replicate, the entry reads "no signal": below detection, most likely a poor binder, though not proof of it. The list is sorted by this average, lowest first, undetected variants last.

VH,group,"mean, log10 nM",detected
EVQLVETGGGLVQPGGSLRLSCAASGFDLNEYGISWVRQAPGKGPEWVSVIYADGRRTAYADSVKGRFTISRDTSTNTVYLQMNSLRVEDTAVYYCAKGETAGTFDQWGQGTLVTVSS,En_Gen,-0.82,6/6
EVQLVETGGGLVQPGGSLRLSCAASGFDLEEYGISWVRQAPGKGPEWVSVIYADGRRTFYSDSVKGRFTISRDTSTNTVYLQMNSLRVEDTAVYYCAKGQTAGTFDLWGQGTLVTVSS,En_HC,-0.80,6/6
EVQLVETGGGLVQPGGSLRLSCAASGFDLNEYGISWVRQAPGKGPEWVSVIYADGMRTAYADKVKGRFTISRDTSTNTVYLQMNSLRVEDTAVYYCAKGENAGTFDTWGQGTLVTVSS,En_Gen,-0.45,6/6
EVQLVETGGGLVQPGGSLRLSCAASGFDLDEYGISWVRQAPGKGPEWVSVIYADGVRTAYVDSVKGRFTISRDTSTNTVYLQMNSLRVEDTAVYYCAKGENAGTFDVWGQGTLVTVSS,En_Gen,-0.34,6/6
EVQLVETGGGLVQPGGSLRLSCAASGFELNSYGISWVRQAPGKGPEWVSVIYSDGRRTFYADSVKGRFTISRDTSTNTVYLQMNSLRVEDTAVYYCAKGQAAGTFDTWGQGTLVTVSS,GPLM_Gen,0.08,6/6
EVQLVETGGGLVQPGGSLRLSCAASGFKLNSYGISWVRQAPGKGPEWVSVIYADGRRTFYGDSVKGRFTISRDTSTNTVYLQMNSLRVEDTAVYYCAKGQAAGTFDSWGQGTLVTVSS,GPLM_Gen,0.08,6/6
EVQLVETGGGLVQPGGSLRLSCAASGFSLNSYGISWVRQAPGKGPEWVSVIYSDGRRTFYGDDVKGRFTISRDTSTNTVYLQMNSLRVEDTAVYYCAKGNAAGTFDSWGQGTLVTVSS,GP_Gen,0.24,6/6
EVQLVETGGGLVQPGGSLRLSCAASGFLLNDYGISWVRQAPGKGPEWVSVIYSDGRRTFYKDSVKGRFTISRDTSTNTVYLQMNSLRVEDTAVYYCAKGHAAGTFDSWGQGTLVTVSS,GP_HC,0.72,6/6
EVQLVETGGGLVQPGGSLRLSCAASGFGLNSYGISWVRQAPGKGPEWVSVIYSDGRRTFYGDAVKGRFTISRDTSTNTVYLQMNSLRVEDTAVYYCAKGKTAGTFDSWGQGTLVTVSS,GP_Gibbs,0.87,6/6

Further variants, results first:

"mean, log10 nM",detected,VH,group
1.86,2/6,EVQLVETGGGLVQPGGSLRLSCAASGFTLNSYGISWVRQAPGKGPEWVSVIYSDGRRTFYGDDVKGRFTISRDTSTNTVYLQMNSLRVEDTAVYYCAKGRAAGTFDAWGQGTLVTVSS,Ctrl
1.98,3/6,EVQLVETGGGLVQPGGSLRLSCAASGFALNSYGISWVRQAPGKGPEWVSVIYSDGRRTFYVDDVKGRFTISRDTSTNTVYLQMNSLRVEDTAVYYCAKGRAAGTFDMWGQGTLVTVSS,Ctrl
2.51,1/6,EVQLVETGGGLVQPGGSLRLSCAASGFNLNEYGISWVRQAPGKGPEWVSVIYADGRRRAYADSVKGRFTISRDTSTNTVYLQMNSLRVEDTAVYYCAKNQNMSGMVTWGQGTLVTVSS,En_Gibbs
2.68,1/6,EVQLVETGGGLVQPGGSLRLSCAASGFTLNSYGISWVRQAPGKGPEWVSVIYSDGRRTFYGDSVKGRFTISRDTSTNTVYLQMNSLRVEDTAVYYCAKGFAAGTFDQWGQGTLVTVSS,Ctrl
no signal,0/6,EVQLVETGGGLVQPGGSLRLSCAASGFELNEYGISWVRQAPGKGPEWVSVIYADGRPTFYEDSVKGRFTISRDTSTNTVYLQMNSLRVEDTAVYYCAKGRAAWTFDSWGQGTLVTVSS,Ctrl
no signal,0/6,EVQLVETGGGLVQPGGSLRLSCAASGFTLNDYGISWVRQAPGKGPEWVSVRYSDGRRTQYIDSVKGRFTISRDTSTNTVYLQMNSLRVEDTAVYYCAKGRAAGTFDSWGQGTLVTVSS,Rand
no signal,0/6,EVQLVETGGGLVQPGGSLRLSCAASGFTLNSYGISWVRQAPGKGPEWVSVIYADGRRTFYGDSVKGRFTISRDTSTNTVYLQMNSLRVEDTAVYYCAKGRATLTFDDWGQGTLVTVSS,Ctrl
no signal,0/6,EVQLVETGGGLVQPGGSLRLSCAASGSKLDEYGISWVRQAPGKGPEWVSVIYADGKRTFYSNAVKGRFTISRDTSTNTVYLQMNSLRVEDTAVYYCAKGIKAGGTTVWGQGTLVTVSS,En_Gibbs
no signal,0/6,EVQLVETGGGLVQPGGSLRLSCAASGFTLNSYGISWVRQAPGKGPEWVSVIYSDGRRTFYGDSVKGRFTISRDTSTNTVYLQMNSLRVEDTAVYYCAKWDAAGTYDSWGQGTLVTVSS,Ctrl
no signal,0/6,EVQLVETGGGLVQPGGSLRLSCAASGFTLNSYGISWVRQAPGKGPEWVSVIYDDGRRTFYGDSVKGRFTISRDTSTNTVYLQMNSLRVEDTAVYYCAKGRAAGTFSSWGQGTLVTVSS,Ctrl

The 2 strongest on average among those seen in every replicate, once more:

| VH | group | mean, log10 nM | detected |
|---|---|---|---|
| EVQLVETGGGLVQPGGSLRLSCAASGFDLNEYGISWVRQAPGKGPEWVSVIYADGRRTAYADSVKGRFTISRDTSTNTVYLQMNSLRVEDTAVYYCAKGETAGTFDQWGQGTLVTVSS | En_Gen | -0.82 | 6/6 |
| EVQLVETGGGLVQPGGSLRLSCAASGFDLEEYGISWVRQAPGKGPEWVSVIYADGRRTFYSDSVKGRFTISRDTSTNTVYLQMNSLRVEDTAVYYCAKGQTAGTFDLWGQGTLVTVSS | En_HC | -0.80 | 6/6 |

Of ten entries with the parent sequence, four were seen in most replicates (averages 0.34 to 2.37), three in one and three in none, so single entries are noisy. The authors' rule: three or more of the six replicates give a measured affinity, fewer mean a poor binder. The range of this assay differs from that of the first round, and the authors advise against merging the two. Background: pairings of all heavy chain designs with three empty control strains gave a value in 1% of cases (median 2.08, 5th percentile 0.84). Values in that range, when seen in few replicates, are hard to tell from nonspecific mating.